Results taken from ChEMBL document CHEMBL4011629, “New Disubstituted Quindoline Derivatives Inhibiting Burkitt's Lymphoma Cell Proliferation by Impeding c-MYC Transcription” (J Med Chem, 2017).

Tested on: Raji
Assay: Antitumor activity against human Raji cells xenografted in NOD/SCID nude mouse assessed as reduction in tumor volume at 1 mg/kg, ip administered once in 2 days for 2 weeks relative to control
Type: functional

COc1cccc2c1C(=O)c1c(O)c3c(c(O)c1C2=O)C[C@@](O)(C(=O)CO)C[C@@H]3O[C@H]1C[C@H](N)[C@H](O)[C@H](C)O1 [DOXORUBICIN]
T/C: 31.9%
